The text below walks through data of paper PMC8761874 (European Journal of Nuclear Medicine and Molecular Imaging, 2022).

The data set concerns NSCLC patients (lung adenocarcinoma). The format is in vivo, human.

Where two headings read alike, the source gives them in different places.

Turning to ^18F-FDG, the SUVmax is, setting by setting: (Patient 1, bone metastasis, right femur) 7.75; (Patient 1, primary LUAC, right lung) 9.45; (Patient 2, primary LUAC, large tumor on the right lung) 18.56.
